Measured values: paper PMC5861220, “The Cytochrome P450-Mediated Metabolism Alternation of Four Effective Lignans From Schisandra chinensis in Carbon Tetrachloride-Intoxicated Rats and Patients With Advanced Hepatocellular Carcinoma” (Frontiers in Pharmacology, 2018)

Protein sequences, listed by entry. Tags and fused reporters are not part of them. Lines headed by an entry give the natural chain unless they say otherwise; changes in a name come on top.
UniProt P04799: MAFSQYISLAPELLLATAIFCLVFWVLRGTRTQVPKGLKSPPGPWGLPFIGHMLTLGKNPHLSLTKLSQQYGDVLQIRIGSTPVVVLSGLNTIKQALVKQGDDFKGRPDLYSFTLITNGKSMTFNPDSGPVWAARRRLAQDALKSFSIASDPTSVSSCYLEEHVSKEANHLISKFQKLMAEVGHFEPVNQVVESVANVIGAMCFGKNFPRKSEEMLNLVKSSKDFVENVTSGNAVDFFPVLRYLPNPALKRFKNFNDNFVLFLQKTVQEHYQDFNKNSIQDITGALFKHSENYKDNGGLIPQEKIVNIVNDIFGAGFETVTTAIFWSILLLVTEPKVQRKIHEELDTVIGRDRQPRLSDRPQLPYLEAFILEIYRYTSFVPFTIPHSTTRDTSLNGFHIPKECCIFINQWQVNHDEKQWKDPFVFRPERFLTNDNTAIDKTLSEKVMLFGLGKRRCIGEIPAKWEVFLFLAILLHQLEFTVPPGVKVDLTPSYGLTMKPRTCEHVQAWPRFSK
UniProt P05178: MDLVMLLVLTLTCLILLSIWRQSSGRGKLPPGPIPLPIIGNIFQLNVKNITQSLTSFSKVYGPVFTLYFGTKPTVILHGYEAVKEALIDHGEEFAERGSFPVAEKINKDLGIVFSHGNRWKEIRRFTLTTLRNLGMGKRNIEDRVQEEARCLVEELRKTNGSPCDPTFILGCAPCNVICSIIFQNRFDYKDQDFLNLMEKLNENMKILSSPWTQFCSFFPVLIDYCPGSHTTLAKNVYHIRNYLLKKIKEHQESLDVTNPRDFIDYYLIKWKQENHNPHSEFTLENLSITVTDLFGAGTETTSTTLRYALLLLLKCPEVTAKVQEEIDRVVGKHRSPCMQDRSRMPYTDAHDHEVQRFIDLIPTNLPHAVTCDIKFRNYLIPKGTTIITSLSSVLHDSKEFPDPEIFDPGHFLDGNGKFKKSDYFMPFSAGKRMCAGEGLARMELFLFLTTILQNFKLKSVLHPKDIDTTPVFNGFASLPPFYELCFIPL
UniProt P08683: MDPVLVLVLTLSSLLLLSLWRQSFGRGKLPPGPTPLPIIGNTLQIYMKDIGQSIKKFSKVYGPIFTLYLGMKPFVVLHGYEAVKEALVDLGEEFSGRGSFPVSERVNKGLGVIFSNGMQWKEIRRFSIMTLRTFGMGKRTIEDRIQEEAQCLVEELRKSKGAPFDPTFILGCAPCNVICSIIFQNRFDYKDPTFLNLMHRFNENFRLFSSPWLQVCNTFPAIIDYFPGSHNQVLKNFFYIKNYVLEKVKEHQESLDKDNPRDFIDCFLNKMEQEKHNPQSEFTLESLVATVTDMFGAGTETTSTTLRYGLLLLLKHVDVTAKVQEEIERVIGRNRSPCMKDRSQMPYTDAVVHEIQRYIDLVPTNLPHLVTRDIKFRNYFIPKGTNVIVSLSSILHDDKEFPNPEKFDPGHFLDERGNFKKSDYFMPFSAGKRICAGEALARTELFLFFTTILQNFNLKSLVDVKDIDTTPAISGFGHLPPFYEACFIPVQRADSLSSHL
UniProt P05182: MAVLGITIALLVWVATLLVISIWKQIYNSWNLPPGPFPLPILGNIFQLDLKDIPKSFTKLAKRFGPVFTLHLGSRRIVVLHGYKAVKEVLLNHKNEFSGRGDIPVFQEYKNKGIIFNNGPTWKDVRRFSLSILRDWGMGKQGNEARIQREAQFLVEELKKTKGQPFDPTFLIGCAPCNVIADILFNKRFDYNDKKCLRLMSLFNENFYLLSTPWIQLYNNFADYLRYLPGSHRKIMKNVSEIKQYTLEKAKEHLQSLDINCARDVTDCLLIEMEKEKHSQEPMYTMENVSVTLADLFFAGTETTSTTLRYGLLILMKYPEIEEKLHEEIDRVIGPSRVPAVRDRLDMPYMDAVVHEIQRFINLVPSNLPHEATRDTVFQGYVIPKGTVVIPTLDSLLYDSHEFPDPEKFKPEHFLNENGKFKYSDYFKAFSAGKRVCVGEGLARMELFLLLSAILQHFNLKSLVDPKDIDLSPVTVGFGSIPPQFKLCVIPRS
UniProt P10634: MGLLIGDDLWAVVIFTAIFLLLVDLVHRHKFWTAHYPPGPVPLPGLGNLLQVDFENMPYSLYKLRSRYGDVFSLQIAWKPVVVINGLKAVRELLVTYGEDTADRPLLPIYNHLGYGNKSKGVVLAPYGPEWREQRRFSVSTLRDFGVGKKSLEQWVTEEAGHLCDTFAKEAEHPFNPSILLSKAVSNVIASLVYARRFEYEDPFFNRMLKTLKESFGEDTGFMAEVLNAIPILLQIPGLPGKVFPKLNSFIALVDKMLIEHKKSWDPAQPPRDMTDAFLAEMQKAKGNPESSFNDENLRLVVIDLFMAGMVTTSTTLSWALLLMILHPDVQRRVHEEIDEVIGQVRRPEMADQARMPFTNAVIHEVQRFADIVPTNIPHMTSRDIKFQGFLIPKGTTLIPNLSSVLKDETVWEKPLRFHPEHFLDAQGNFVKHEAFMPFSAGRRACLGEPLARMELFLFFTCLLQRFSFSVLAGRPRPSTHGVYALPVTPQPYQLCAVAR

Assays:
Conditions in all cases: liver microsomes of CCl4-intoxicated rats vs normal rats, n = 5
[1] = tested on: CYP3A; assay: CYP450 activity with probe substrate (midazolam) in liver microsomes of CCl4-intoxicated rats
[2] = molecular target: CYP1A2 (Rattus norvegicus, UniProt P04799); assay: CYP450 activity with probe substrate (phenacetin) in liver microsomes of CCl4-intoxicated rats
[3] = molecular target: CYP2C6 (Rattus norvegicus, UniProt P05178); assay: CYP450 activity with probe substrate (diclofenac) in liver microsomes of CCl4-intoxicated rats
[4] = molecular target: CYP2C11 (Rattus norvegicus, UniProt P08683); assay: CYP450 activity with probe substrate (S-mephenytoin) in liver microsomes of CCl4-intoxicated rats
[5] = molecular target: CYP2E1 (Rattus norvegicus, UniProt P05182); assay: CYP450 activity with probe substrate (chlorzoxazone) in liver microsomes of CCl4-intoxicated rats
[6] = molecular target: CYP2D2 (Rattus norvegicus, UniProt P10634); assay: CYP450 activity with probe substrate (dextromethorphan) in liver microsomes of CCl4-intoxicated rats

Substance: carbon tetrachloride
- Decrease of metabolic production rate of 1-hydroxymidazolam (CYP3A) [1]: 46%
- Decrease of metabolic production rate of acetaminophen (CYP1A2) [2]: 43%
- Decrease of metabolic production rate of 4-hydroxydiclofenac (CYP2C6) [3]: 77%
- Decrease of metabolic production rate of 4-hydroxymephenytoin (CYP2C11) [4]: 63%
- Decrease of metabolic production rate of 6-hydroxychlorzoxazone (CYP2E1) [5]: 43%
- Decrease of metabolic production rate of dextrophan (CYP2D2) [6]: 79%
